From PMC11053023 (2024)

Biological target: FEM1B-EB-EC ternary complex (human, UniProt Q9UK73 1-627; Q15370 1-118; Q15369 17-112)
Assay: ITC

B1: MCRIP1 C-degron (C-term 23-mer), SUMO fusion (peptide)
chain: GGGSGGGSLKTFKPIDLSDLKRRSTQDAKKS
Kd: 1.9 µM

B2: BEX2 C-degron (C-term 23-mer), SUMO fusion (peptide)
chain: GGGSGGGSHSLRAVSTDPPHHDHHDEFCLMP
Kd: 6.8 µM
